Article PMC8292354, “Molecular insights into the endoperoxide formation by Fe(II)/α-KG-dependent oxygenase NvfI” (Nature Communications, 2021)

System: COC(=O)[C@@H]1C(=O)C(C)=C2O[C@@]3(C[C@]2(C)[C@H]1C)[C@@H](C)CC[C@H]1C(C)(C)OC(=O)CC[C@@]13C
Experiment: purified protein
Details: 50 mM HEPES pH 7.5, 1 μM FeSO4, 500 μM ascorbate, 500 μM α-KG, 30 °C, 2 min, 0.1 μM enzyme

## NvfI (Aspergillus novofumigatus IBT 16806; Y116A)
  Km: 19.5 ± 4.8 µM
  kcat: 0.00283 ± 0.00017 s⁻¹
